Assay results taken from US12616669B2, “Methods and chemical compositions for treating skin conditions by providing long lasting skin pH control for improving skin barrier function” (Soteri Skin, Inc., priority 2021, dated 2026).

Assay: Evaluation of various buffering systems on human skin
Conditions: in vivo

absorption by the skin: readily absorbed by the skin
Compound: O=C(O)CO [glycolic acid]
